Literature values as cited in publication PMC9339481 (Nature chemical biology, 2022).

Target: T1, HDAC10 (Homo sapiens, UniProt Q969S8)
T1 sequence (Q969S8 1-669): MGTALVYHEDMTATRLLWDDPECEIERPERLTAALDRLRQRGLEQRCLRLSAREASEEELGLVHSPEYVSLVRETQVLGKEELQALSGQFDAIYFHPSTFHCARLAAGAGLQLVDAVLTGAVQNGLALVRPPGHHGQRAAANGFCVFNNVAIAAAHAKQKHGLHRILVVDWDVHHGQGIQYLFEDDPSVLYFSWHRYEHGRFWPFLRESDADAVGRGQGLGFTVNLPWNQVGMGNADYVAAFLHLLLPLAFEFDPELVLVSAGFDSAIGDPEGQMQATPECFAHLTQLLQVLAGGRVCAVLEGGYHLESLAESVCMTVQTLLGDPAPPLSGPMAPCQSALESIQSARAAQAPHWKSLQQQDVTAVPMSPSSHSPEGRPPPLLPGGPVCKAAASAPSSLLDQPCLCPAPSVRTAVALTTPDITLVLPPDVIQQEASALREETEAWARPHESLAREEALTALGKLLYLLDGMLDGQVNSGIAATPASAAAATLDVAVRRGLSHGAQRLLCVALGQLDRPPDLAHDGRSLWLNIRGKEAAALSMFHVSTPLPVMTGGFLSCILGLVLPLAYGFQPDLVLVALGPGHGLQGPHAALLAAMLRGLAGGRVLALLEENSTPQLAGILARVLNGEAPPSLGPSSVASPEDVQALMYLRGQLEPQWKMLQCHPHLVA
Conditions: reported values; cited from earlier work

## CCCCN(Cc1ccc(C(=O)NO)cc1)C(=O)Nc1ccccc1 [Nexturastat A]
  pEC50 HDAC10: 5.1
